Source: patent US7632933B2, “Corticotropin releasing factor 2 receptor agonists” (priority 2002, dated 2009)

Assays:
CRF2R = biological target: T1, CRF2R (Homo sapiens, UniProt Q13324); assay: CRF2R agonist activity (EC50 and Emax), called comparative CRF binding; assay type: cell-based; details: CRF2R EC50 (nM), CRF2R
T1 sequence (Q13324 1-411): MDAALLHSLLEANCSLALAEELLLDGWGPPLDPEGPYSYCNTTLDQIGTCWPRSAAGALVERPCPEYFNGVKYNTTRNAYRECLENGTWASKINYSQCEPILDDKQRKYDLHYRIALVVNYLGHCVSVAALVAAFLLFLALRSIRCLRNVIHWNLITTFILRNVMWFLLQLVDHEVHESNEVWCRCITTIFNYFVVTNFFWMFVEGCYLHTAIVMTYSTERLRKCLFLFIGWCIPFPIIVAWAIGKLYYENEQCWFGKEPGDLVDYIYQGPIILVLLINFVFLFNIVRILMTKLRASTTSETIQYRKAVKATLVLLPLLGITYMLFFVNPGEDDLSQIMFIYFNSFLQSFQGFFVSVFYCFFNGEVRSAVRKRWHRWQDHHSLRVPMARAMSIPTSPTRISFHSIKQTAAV
Method in brief: (§1)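 cAMP read-out: lysates of CRF1R- or CRF2R-expressing cells assayed after peptide exposure, compared against vehicle-treated cells; signal from any non-target CRFR subtracted as background.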

CRF1R = biological target: T2, CRF1R (Homo sapiens, UniProt P34998); assay: CRF1R agonist activity (EC50 and Emax), called comparative CRF binding; assay type: cell-based; details: CRF1R; for EC50: CRF1R EC50 (nM)
T2 sequence (P34998 24-415): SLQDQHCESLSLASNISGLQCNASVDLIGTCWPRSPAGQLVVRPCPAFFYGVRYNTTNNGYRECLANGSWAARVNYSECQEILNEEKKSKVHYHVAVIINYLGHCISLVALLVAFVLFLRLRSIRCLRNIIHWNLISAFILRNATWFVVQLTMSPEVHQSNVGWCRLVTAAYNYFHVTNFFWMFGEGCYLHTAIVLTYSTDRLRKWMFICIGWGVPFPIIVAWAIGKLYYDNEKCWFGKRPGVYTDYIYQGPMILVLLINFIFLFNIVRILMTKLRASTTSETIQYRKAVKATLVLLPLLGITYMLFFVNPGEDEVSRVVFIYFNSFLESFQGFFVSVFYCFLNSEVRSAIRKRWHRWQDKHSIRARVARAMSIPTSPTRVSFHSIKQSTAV
Method in brief: as §1

Structure (SMILES) | EC50 (CRF2R) | EC50 (CRF1R) | CRF1R (Emax %) (CRF1R; Emax)
CC[C@H](C)[C@H](NC(=O)[C@@H](NC(=O)[C@H](CC(=O)O)NC(=O)[C@H](CC(C)C)NC(=O)[C@H](CC(C)C)NC(=O)[C@H](CC(C)C)NC(=O)[C@H](CCCNC(=N)N)NC(=O)[C@H](CC(N)=O)NC(=O)[C@H](CC(N)=O)NC(=O)[C@H](C)NC(=O)[C@H](C)NC(=O)[C@H](CCC(N)=O)NC(=O)[C@H](CCC(N)=O)NC(=O)[C@H](CCCCN)NC(=O)[C@H](CCC(=O)O)NC(=O)[C@H](CCCCN)NC(=O)[C@H](CCC(=O)O)NC(=O)[C@H](CCC(N)=O)NC(=O)[C@H](CCCCN)NC(=O)[C@H](CCC(=O)O)NC(=O)[C@@H](NC(=O)[C@H](CCC(=O)O)NC(=O)[C@@H](NC(=O)[C@H](CCSC)NC(=O)[C@H](CCCCN)NC(=O)[C@H](CCCNC(=N)N)NC(=O)[C@H](CC(C)C)NC(=O)[C@H](CC(C)C)NC(=O)[C@H](C)NC(=O)[C@@H](NC(=O)[C@@H]1CCCN1C(=O)[C@H](CC(C)C)NC(=O)[C@H](CC(=O)O)NC(=O)[C@@H](NC(=O)[C@H](CO)NC(=O)[C@@H](NC(=O)[C@@H]1CCCN1C(=O)[C@@H]1CCCN1C(=O)CNC(=O)[C@@H]1CCC(=O)N1)[C@@H](C)CC)[C@@H](C)CC)[C@@H](C)O)[C@@H](C)CC)[C@@H](C)CC)[C@@H](C)O)C(N)=O [compound 301] | 50.4 nM | 690 nM | (84.10) %
CC[C@H](C)[C@H](NC(=O)[C@@H](NC(=O)[C@H](CC(=O)O)NC(=O)[C@H](CC(C)C)NC(=O)[C@H](CC(C)C)NC(=O)[C@H](CC(C)C)NC(=O)[C@H](CCCNC(=N)N)NC(=O)[C@H](CC(N)=O)NC(=O)[C@H](CC(N)=O)NC(=O)[C@H](C)NC(=O)[C@H](C)NC(=O)[C@H](CCC(N)=O)NC(=O)[C@H](CCC(N)=O)NC(=O)[C@H](CCCCN)NC(=O)[C@H](CCC(=O)O)NC(=O)[C@H](CCCCN)NC(=O)[C@H](CCC(=O)O)NC(=O)[C@H](CCC(N)=O)NC(=O)[C@H](CCCCN)NC(=O)[C@H](CCC(=O)O)NC(=O)[C@@H](NC(=O)[C@H](CCC(=O)O)NC(=O)[C@@H](NC(=O)[C@H](CCSC)NC(=O)[C@H](CCCCN)NC(=O)[C@H](CCCNC(=N)N)NC(=O)[C@H](CC(C)C)NC(=O)[C@H](CC(C)C)NC(=O)[C@H](Cc1ccc(O)cc1)NC(=O)[C@H](CCC(=O)O)NC(=O)[C@@H]1CCCN1C(=O)[C@H](CC(C)C)NC(=O)[C@H](CC(=O)O)NC(=O)[C@@H](NC(=O)[C@H](CO)NC(=O)[C@@H](NC(=O)[C@@H]1CCCN1C(=O)[C@@H]1CCCN1C(=O)CNC(=O)[C@@H]1CCC(=O)N1)[C@@H](C)CC)[C@@H](C)CC)[C@@H](C)CC)[C@@H](C)CC)[C@@H](C)O)C(N)=O [compound 48] | ≥ 100 nM | ≥ 1000 nM | –
